# Apparent affinities of Ab-95 variants for a coronavirus HR2 peptide

From the AlphaSeq antibody data of Engelhart et al. 2022 (doi:10.1038/s41597-022-01779-4), copy in the FLAb collection.

The target is the same throughout: PDVDLGDISGINAS, from the HR2 region of SARS-CoV-2 spike.

Parent: Ab-95, a human scFv built as VH, a 15-residue (Gly4Ser)3 linker, VL. Only the CDRs of the light chain vary.
VH: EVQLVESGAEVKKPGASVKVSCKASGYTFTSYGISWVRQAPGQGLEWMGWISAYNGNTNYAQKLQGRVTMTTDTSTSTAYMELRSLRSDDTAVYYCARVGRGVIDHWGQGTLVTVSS
VL: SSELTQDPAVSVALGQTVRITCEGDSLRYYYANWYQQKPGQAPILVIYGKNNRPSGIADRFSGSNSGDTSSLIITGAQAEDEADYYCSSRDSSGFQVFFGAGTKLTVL

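The parent was found by panning a naive human phage display library on the peptide. AAYL52 was designed without a model: most single CDR substitutions and a random sample of double and triple ones. The scFvs were displayed on barcoded MATa yeast, the peptide on MATalpha yeast. The frequency of each diploid, read from paired DNA barcodes, reflects how well the two displayed proteins bind. Scores were corrected for input abundance and mapped to Kd with protein pairs of known affinity run in the same pool. There are three technical replicates.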

Each variant is given by its three light chain CDRs, as the data file delimits them; those of the parent are EGDSLRYYYAN, GKNNRPS, SSRDSSGFQVF.
This list gathers variants with a substitution at L27 (VL, numbered from residue 1).
The Kd shown is the geometric mean over detected replicates; a lower Kd is a better binder.
"no signal" means that the variant was in the library but no mating with the target was seen in any replicate; the authors take this as a sign of poor binding, and no number exists.
As a blank, each scFv also met three strains without target: over library AAYL52, 28% of these pairings were detected, typically at 8.2 µM and seldom below 800 nM.
For reference, the parent read 200 nM as the reference entry and 180 nM as a member of this library.

Variant EGHSMRYYYAN / GKNNRPS / SSRDSSGCQVF showed 24 µM (1 of 3 replicates).
Variant EGDSQRYYYCN / GSNNRPS / SSRDSSGFQVF showed 28 nM (3 of 3 replicates).
Variant EGDSRRYYPAN / GKNNRPS / SPRDSSGFQVF showed 220 nM (1 of 3 replicates).
Variant EGESIRYYYAN / GKNNRPS / SSRDSSGFQVF showed 520 nM (3 of 3 replicates).
Variant EGDSTRYYYAN / GKNNRIS / SSRDSSGFLVF showed 6.6 µM (2 of 3 replicates).
Variant EGDSRRYYYAN / GKNNRPS / SSRDSSGFQVF showed 8.7 µM (2 of 3 replicates).
Variant PGDSTRYYPAN / GKNNRPS / SSRDSSGFQVF showed 1.2 µM (1 of 3 replicates).
Variant GMDSHRYYYAN / GKNNRPS / SSRDSSGFQVF showed 8.2 µM (3 of 3 replicates).
Variant EGDSRRYYYAN / GFNNRPS / SNRDSSGFQVF showed 65 µM (2 of 3 replicates).
Variant EGDSRRYYYAN / GKHNRPS / SSRDSSGFQVF showed no signal (0 of 3 replicates).
Variant EGDSYRYYYEN / GKNNRPS / SSRDSSGFQVF showed 950 nM (1 of 3 replicates).
Variant EGDSIRYYYAN / GKNNRPS / SSRDSSGFQWF showed 1.6 µM (3 of 3 replicates).
Variant EGDSDRYYYAN / GKNKRPS / TSRDSSGFQVF showed 8.9 µM (1 of 3 replicates).
Variant AGDSMRYYYAN / GKNNRPS / SSWDSSGFQVF showed 530 nM (3 of 3 replicates).
Variant EGDSKRYYYAC / GKNNRPS / WSRDSSGFQVF showed 52 µM (3 of 3 replicates).
Variant EGDSETYYYAN / GKNNRPS / SSRDSSGNQVF showed 4.1 µM (1 of 3 replicates).
Variant EGDSWRYYYAN / GKNNRPS / SSIDSLGFQVF showed no signal (0 of 3 replicates).
Variant EGDSGRYYYAN / GKNLRPS / SSRDSSGFQVF showed 10 µM (2 of 3 replicates).
Variant EGDSERYYYAN / GKNNRPS / RSRDSNGFQVF showed 3.8 µM (1 of 3 replicates).
Variant EGDSMDYYYAN / GNNNRPS / SSRDSSGFQVF showed 180 nM (3 of 3 replicates).
Variant EGDSPRYYYAN / GKNNRPS / RSRRSSGFQVF showed 37 µM (2 of 3 replicates).
Variant EGDSRRLYYAN / GKNNRPS / SSRDSSGFQVH showed no signal (0 of 3 replicates).
Variant EGDSARYYYAN / GKNNRPS / SSHDSSGFQTF showed 48 µM (1 of 3 replicates).
Variant LGDSQRYYYAN / GKNNRPS / SSRDSSGQQVF showed 500 nM (3 of 3 replicates).
Variant EGDSKRYYYAN / GCNNRPS / SSYDSSGFQVF showed 14 µM (1 of 3 replicates).
Variant EGDSKRYYYAN / TKNNRPS / SRRDSSGFQVF showed no signal (0 of 3 replicates).
Variant EMDSWRYYYAN / GKNNRPS / SSRDSSYFQVF showed 11 µM (2 of 3 replicates).
Variant EGDSQCYYYAN / GKNNRPS / ESRDSSGFQVF showed 35 µM (2 of 3 replicates).
Variant EGDSARCYYAN / GKNNRPS / SSRDSSGFQVF showed 2.6 µM (1 of 3 replicates).
Variant EGDSVRYYYAN / GKNFRPS / FSRDSSGFQVF showed 14 µM (1 of 3 replicates).
Variant EMDSPRLYYAN / GKNNRPS / SSRDSSGFQVF showed 2.0 µM (3 of 3 replicates).
Variant EGDSWRYYYAN / GKNNRPS / QSRDSSGFQVF showed 66 nM (3 of 3 replicates).
Variant EGNSWRYYYAN / QKNNRPS / SSRDSSGFQVF showed no signal (0 of 3 replicates).
Variant EGDSGRYYYAN / GKNNRYS / SSNDSSGFQVF showed 92 µM (1 of 3 replicates).
Variant EGDSVRYYYAN / GHNNRPS / SSKDSSGFQVF showed no signal (0 of 3 replicates).
Variant EGDSSRYYYAN / GKNNRPS / SSRNSSGFQVH showed 85 µM (3 of 3 replicates).
Variant EGDSIRYYYAN / GKNNRPS / SSHDSSGFQKF showed 1.7 µM (3 of 3 replicates).
Variant EGDSERYYYAN / GKNNRPS / SSRDSSIFQAF showed 1.6 µM (1 of 3 replicates).

Picked from the list: the 2 lowest averages where every replicate gave a value.

CDR-L1	CDR-L2	CDR-L3	apparent Kd	seen in
EGDSQRYYYCN	GSNNRPS	SSRDSSGFQVF	28 nM	3 of 3
EGDSWRYYYAN	GKNNRPS	QSRDSSGFQVF	66 nM	3 of 3